The values below come from PMC13254535, “The RecBCD complex interacts directly with the DNA sliding clamp in Escherichia coli” (Nucleic Acids Research, 2026).

The experiment addresses T1, RecB nuclease motif peptide (KQVEMEFY) (Escherichia coli).
T1 construct: also called QVEMEF peptide; RecB-derived QVEMEF peptide; source: synthetic peptide; bought: TAG Copenhagen
T1 peptide: Ac-KQVEMEFY-NH2
The experiment is described as follows: ITC; 278-294 µM β-clamp in the syringe titrated into 70.6 µM peptide in the cell; 20 mM sodium phosphate, 100 mM NaCl, 1 mM TCEP, 0.02% DMSO, pH 7.4, 25°C; one-site model; three replicates. The note with it: both partners purified. For orientation: ITC needs no label: the signal is the heat of the interaction.

B1: Escherichia coli β-clamp (DnaN), recombinantly expressed and purified (natural protein)
chain: MKFTVEREHLLKPLQQVSGPLGGRPTLPILGNLLLQVADGTLSLTGTDLEMEMVARVALVQPHEPGATTVPARKFFDICRGLPEGAEIAVQLEGERMLVRSGRSRFSLSTLPAADFPNLDDWQSEVEFTLPQATMKRLIEATQFSMAHQDVRYYLNGMLFETEGEELRTVATDGHRLAVCSMPIGQSLPSHSVIVPRKGVIELMRMLDGGDNPLRVQIGSNNIRAHVGDFIFTSKLVDGRFPDYRRVLPKNPDKHLEAGCDLLKQAFARAAILSNEKFRGVRLYVSENQLKITANNPEQEEAEEILDVTYSGAEMEIGFNVSYVLDVLNALKCENVRMMLTDSVSSVQIEDAASQSAAYVVMPMRL
notes: β-clamp (dnaN), E. coli; homodimer; Unlabeled in STD-NMR and ITC; 2H,13C,15N-labeled in the TROSY-HSQC experiments; also called DNA sliding clamp; source: recombinantly expressed and purified as previously described [54]
As usually defined, the stoichiometry N is the number of molecules, sites or subunits per partner or assembly. Consider B1, for which the “stoichiometry N” value came to 0.39.
